This is a selection; strong and weak results do not stand in their true shares. Calls of active or inactive are those of the source.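 The calls were made as follows: active = z-score above 3 at 5 µM with at least 500 cells counted in the well; inconclusive = wells under 500 cells, flagged as cytotoxic or low count; inactive = the rest.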
Experiment: insulin promoter activators in MIN6 cells, imaging, high-content screening, mouse beta cells (AID 1625)
Settings: MIN6 insulin promoter-GFP reporter, at 5 µM, hits give high values

Structure (SMILES)	z-score
COc1ccc(C(=O)NCC2(N3CCCCC3)CCCCC2)c(OC)c1OC	inactive: -0.92
N#CC1(Nc2ccccc2)CCN(Cc2ccccc2)CC1	inactive: -0.41
O=C(OC1CN2CCC1CC2)C1c2ccccc2Oc2ccccc21 (configuration not stated)	inactive: 0.16
O=C(NCC1(N2CCOCC2)CCCCC1)c1cc2ccccc2o1	inactive: -1.13
COc1ccc(NC2CCN(CCc3ccccc3)CC2)c(OC)c1	inactive: -1.39
CCOc1ccc(C)cc1CN(CCCl)CCCl	inactive: 0.23
Cc1ccc(OCC(C)C)c(CN(CCCl)CCCl)c1	inactive: -0.18
O=C(NCC1(N2CCCCC2)CCCCC1)c1cccc([N+](=O)[O-])c1	inactive: -0.22
N#CC1(Nc2ccccc2)CCN(CCc2ccccc2)CC1	inactive: -0.46
COc1ccc(NC2CCN(C(=O)OC(C)(C)C)CC2)cc1	inactive: 1.64
CN1CCN(CCOC(=O)C(O)(c2ccccc2)c2ccccc2)CC1	inactive: 0.18
CN(C)c1cccc(C(=O)NCC2(N3CCCCC3)CCCCC2)c1	inactive: -0.66
COc1ccc(CN(CCCl)CCCl)cc1Cl	inactive: 2.52
CC(C)c1ccc(NC2CCN(C(=O)OC(C)(C)C)CC2)cc1	inactive: -0.2
COc1ccc(C(=O)NCC2(N3CCOCC3)CCCCC2)cc1OC	inactive: -0.19
O=C(OC1CN2CCC1CC2)C1c2ccccc2C=Cc2ccccc21 (configuration not stated)	inactive: -0.57
N/C(=N\O)c1c(N)no[n+]1[O-]	inactive: 0.11
N#Cc1ccc(C(=O)NCC2(N3CCCCC3)CCCCC2)cc1	inactive: 0.06
c1ccc(CN2CCC(Nc3ccccc3)CC2)cc1	inactive: 0.53
Fc1ccccc1NC1CCN(Cc2ccccc2)CC1	inactive: -0.15
CN(C)c1ccc(C(=O)NCC2(N3CCCCC3)CCCCC2)cc1	inactive: 0.19
CCN1CCC(Nc2cccc(F)c2)CC1	inactive: 0.16
CC(C)(C)OC(=O)N1CCC(Nc2ccccc2)CC1	inactive: -0.32
CCOc1ncccc1C(=O)NCC1(N2CCOCC2)CCCCC1	inactive: -0.06
CCCOc1ccc(C)cc1CN(CCCl)CCCl	inactive: 0.18
CCC(CO)(C(=O)OC1CN2CCC1CC2)c1ccccc1 (configuration not stated)	inactive: -0.06
COc1cc(OC)cc(C(=O)NCC2(N3CCOCC3)CCCCC2)c1	inactive: -0.49
